The numbers were not newly measured in patent publication US20220023244A1, “FORMULATION FOR TOPICAL TREATMENT OF ACUTE WOUNDS” (priority 2020, published 2022), which cites them from elsewhere.

In the case of `CC[C@H](C)[C@H](NC(=O)CN)C(=O)NCC(=O)N[C@@H](C)C(=O)N[C@H](C(=O)N[C@@H](CC(C)C)C(=O)N[C@@H](CCCCN)C(=O)N[C@H](C(=O)N[C@@H](CC(C)C)C(=O)N[C@H](C(=O)N[C@H](C(=O)NCC(=O)N[C@@H](CC(C)C)C(=O)N1CCC[C@H]1C(=O)N[C@@H](C)C(=O)N[C@@H](CC(C)C)C(=O)N[C@H](C(=O)N[C@@H](CO)C(=O)N[C@@H](Cc1c[nH]c2ccccc12)C(=O)N[C@H](C(=O)N[C@@H](CCCCN)C(=O)N[C@@H](CCCNC(=N)N)C(=O)N[C@@H](CCCCN)C(=O)N[C@@H](CCCNC(=N)N)C(=O)N[C@@H](CCC(N)=O)C(=O)N[C@@H](CCC(N)=O)C(N)=O)[C@@H](C)CC)[C@@H](C)CC)[C@@H](C)O)[C@@H](C)O)C(C)C)C(C)C` [melittin], the aqueous solubility entry was “high”.
